What was measured:
Assay type in all cases: biochemical
[1] = target: T1, acetylcholinesterase (AChE) (Rattus norvegicus, UniProt P37136); conditions: Table 2; cortex AChE, serum BuChE
T1 construct: from tissue; host or cells: homogenate of rat cortex
T1 sequence (P37136 32-614): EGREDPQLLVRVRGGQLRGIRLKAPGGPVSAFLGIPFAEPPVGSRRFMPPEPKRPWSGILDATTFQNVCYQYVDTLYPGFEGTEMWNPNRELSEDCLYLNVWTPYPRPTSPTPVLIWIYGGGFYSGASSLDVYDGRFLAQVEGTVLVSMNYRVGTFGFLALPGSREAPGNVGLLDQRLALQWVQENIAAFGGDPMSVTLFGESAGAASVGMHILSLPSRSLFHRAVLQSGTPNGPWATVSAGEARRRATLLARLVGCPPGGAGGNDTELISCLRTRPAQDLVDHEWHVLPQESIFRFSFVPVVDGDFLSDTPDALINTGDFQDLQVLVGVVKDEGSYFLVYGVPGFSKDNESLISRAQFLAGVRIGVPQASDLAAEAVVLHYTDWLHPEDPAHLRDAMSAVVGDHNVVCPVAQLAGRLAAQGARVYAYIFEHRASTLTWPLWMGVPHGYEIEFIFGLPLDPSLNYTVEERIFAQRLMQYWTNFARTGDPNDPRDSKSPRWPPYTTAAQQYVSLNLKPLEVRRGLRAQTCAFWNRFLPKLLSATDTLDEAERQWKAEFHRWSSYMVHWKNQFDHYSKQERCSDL

Chains of the proteins cited; added tags and fusions are not shown. Residues count along the entry.
UniProt Q9JKC1, 24-597: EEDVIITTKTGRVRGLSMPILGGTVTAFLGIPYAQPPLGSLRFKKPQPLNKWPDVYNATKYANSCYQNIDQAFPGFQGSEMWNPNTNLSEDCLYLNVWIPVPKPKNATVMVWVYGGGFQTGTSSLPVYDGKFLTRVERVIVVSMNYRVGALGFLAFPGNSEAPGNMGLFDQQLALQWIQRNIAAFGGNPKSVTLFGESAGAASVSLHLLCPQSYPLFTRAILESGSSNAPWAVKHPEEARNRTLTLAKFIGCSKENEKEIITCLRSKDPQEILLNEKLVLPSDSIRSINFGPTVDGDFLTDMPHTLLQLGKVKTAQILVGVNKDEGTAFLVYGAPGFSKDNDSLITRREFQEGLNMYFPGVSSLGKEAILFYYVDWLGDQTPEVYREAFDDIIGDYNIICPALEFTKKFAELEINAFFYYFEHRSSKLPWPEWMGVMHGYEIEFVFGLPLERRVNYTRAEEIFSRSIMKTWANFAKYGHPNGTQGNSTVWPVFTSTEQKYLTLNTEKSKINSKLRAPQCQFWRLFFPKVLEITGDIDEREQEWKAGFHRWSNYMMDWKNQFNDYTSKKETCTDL

AChE = target: T2, AChE (Rattus norvegicus, UniProt P37136); conditions: Table 6
T2 construct: 0.1-0.2 ml of enzyme solution (red cell membrane or serum of rat) was added; from tissue; host or cells: rat tissue
T2 sequence (P37136 32-614): T1 sequence (P37136 32-614)

[2] = target: T3, butyrylcholinesterase (BuChE) (Rattus norvegicus, UniProt Q9JKC1); test: In-vitro anticholinesterase effect, colorimetric method (Ellman), BuChE from rat's serum
T3 construct: from tissue; host or cells: rat serum

| Structure (SMILES) | IC50 ratio BuChE/AChE [1] | BuChE/AChE (AChE) | IC50 [2] [µM] |
| --- | --- | --- | --- |
| CC=C1C2C=C(C)CC1(N=Cc1cc(OC)c(OC)c(OC)c1)c1ccc(=O)[nH]c1C2 (centres unmarked) [derivative No. 21] | 1121.3 | >500 | – |
| CC=C1C2C=C(C)CC1(N=Cc1cccc(O)c1O)c1ccc(=O)[nH]c1C2 (centres unmarked) [derivative No. 24] | 1585.0 | >100 | 158 |
